Assay: Comparison of solubility and effervescence of representative calcium preparations (Table 1)
Details: corrected to 400 mg Ca per dose; medium as listed

Effervescence: No
Substance: calcium acetate [Ca Acetate]
